Values of other authors in article PMC3138524 (European journal of pharmacology, 2011).

By UniProt entry, the sequences of proteins in these tests, tags left out.
UniProt P32245, whole entry: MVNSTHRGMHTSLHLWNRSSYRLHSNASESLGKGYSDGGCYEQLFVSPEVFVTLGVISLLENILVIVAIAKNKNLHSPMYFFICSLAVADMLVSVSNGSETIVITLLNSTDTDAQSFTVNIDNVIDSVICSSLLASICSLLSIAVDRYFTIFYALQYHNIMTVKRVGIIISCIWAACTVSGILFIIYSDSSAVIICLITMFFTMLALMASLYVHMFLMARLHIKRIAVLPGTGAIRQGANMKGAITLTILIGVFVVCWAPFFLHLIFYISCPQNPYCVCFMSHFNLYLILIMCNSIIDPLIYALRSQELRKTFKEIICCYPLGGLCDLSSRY

Assays:
MC4R [1] = target: T1, MC4R (Homo sapiens, UniProt P32245); format: cell-based, HEK293; settings: read-out: Binding Affinities IC50; n = 2
MC4R [2] = target: T1, MC4R; format: cell-based, HEK293; settings: read-out: Functional Assays cAMP EC50; n = 2

IC50 (MC4R [1]): 2.5 nM
EC50 (MC4R [2]): 24 nM
Substance: Tyr-Val-Nle-Gly-His-D-Nal(2′)-Arg-Trp-Asp-Arg-Phe-Gly-NH2 [compound 1]
